Measured values published in patent US20130281449A1, “Oxazine Derivatives and their Use in the Treatment of Neurological Disorders” (NOVARTIS AG, priority 2011, published 2013).
Counter-ions that a name gives are not always drawn.

Protein sequences, listed by entry. Tags and fused reporters are not part of them. Residues count along the entry.
UniProt P56817, 46-457 limits assumed: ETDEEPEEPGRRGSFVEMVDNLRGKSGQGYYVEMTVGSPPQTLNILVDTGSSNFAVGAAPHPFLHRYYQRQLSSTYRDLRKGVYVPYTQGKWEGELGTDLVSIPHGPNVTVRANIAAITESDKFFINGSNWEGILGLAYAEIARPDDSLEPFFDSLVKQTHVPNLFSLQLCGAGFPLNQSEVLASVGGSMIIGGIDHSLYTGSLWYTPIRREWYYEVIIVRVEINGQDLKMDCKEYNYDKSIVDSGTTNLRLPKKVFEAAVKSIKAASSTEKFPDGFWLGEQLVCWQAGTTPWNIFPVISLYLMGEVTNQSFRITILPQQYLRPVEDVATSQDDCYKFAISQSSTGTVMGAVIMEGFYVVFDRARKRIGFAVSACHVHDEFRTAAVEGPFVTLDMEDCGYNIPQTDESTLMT

Molecular target: Human BACE-1 (Homo sapiens, UniProt P56817)
Test: Test 1: Inhibition of Human BACE-1
Assay type: biochemical

| Structure (SMILES) | IC50 [nM] |
| --- | --- |
| C[C@@]1(c2cc(NC(=O)c3ncc(OC(F)F)cc3Cl)ccc2F)CO[C@@](C)(C(F)(F)F)C(N)=N1 [Example 19, 3-Chloro-5-difluoromethoxy-pyridine-2-carboxylic acid [3-((3R,6R)-5-amino-3,6-dimethyl-6-trifluoromethyl-3,6-dihydro-2H-[1,4]oxazin-3-yl)-4-fluoro-phenyl]-amide hydrochloride] | 16 |
| C[C@@]1(c2cc(NC(=O)c3ncc(C#N)cc3N)ccc2F)CO[C@@](C)(C(F)(F)F)C(N)=N1 [Example 26, 3-Amino-5-cyano-pyridine-2-carboxylic acid [3-((3R,6R)-5-amino-3,6-dimethyl-6-trifluoromethyl-3,6-dihydro-2H-[1,4]oxazin-3-yl)-4-fluoro-phenyl]-amide] | 5 |
